TDP1 inh – inhibitors of human tyrosyl-DNA phosphodiesterase TDP1 | Q9NUW8 | recombinant TDP1, AlphaScreen DNA substrate cleavage | Potency, µM (titrated, usually from 130 µM), actives largely listed as inhibitors | 0.28% of 350,000 active; also: nearly all actives have a fitted effect of over 40% in size
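Recombinant E. coli-expressed Tdp1 (1 nM) preincubated with compound 15 min at RT, then 5'-biotin/3'-phosphotyrosine-FITC DNA substrate (15 nM) added for 5 min. AlphaScreen beads (10 ug/ml) added, 10 min RT; tyrosine-FITC cleavage read as signal loss.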
uPA generation – blocks generation of uPA at the cell surface. cell surface uPA generation assay, qHTS. Potency, µM (titrated, usually from 38.3 µM), hits mostly inhibitors. 0.31% of 330,000 active; active = well fitted inhibition curve with a large enough effect; inconclusive = small, poorly fitted or top-dose-only effect; inactive = no such curve, though single readings can be large or run the other way; tested in mouse RAW 264.7 cells; also: nearly all actives have a fitted effect of over 55% in size
DT40 TDP1 no CPT – qHTS for Inhibitors of human tyrosyl-DNA phosphodiesterase 1 (TDP1): qHTS in cells in absence of CPT; 15% of 420,000 active; Potency, µM (highest dose often 46.2 µM), hits mostly inhibitors; AID 686978, 2013; DT40 Tdp1-/- hTDP1 cells, no CPT, ATP luminescence, 48 h; also: nearly all actives have a fitted effect of over 55% in size
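Readout: luminescence from CellTiter-Glo after 30 min in the dark at RT. Cells: DT40 Tdp1-/- with stable hTDP1, 400/well. Exposure: compounds alone, ≥48 hr, 37 °C.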
miR-21 reporter – miR-21 reporter, rising signal. HeLa miR-21 FLuc reporter, luciferase, 48 h. Potency, µM (highest dose often 38.3 µM). 340,000 tested, under 10 active. AID 2288; active = well fitted rising curve with a large enough effect; inconclusive = small, poorly fitted or top-dose-only effect; inactive = no such curve, though single readings can be large or run the other way;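 further: miR-21 action dims this reporter so a rising signal means less miR-21 action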
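Luminescence from a firefly luciferase reporter carrying a miR-21 binding site downstream, stably expressed under a CMV promoter in HeLa cells that make miR-21 endogenously, reports miRNA modulation after 48 h compound exposure up to approximately 40uM final.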
DT40 TDP1 CPT – DT40-hTDP1 cell growth loss with CPT; chicken DT40 Tdp1-/-;hTDP1 cells + 20 nM CPT, ATP luminescence, 48 h; Potency, µM (highest dose often 46.2 µM), hits mostly inhibitors; 12% of 420,000 active; AID 686979; also: nearly all actives have a fitted effect of over 55% in size
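Chicken DT40 Tdp1-/- cells complemented with human TDP1, 400 cells/well, exposed to compounds plus 20 nM camptothecin for at least 48 h at 37 C; viability read as ATP content by CellTiter-Glo luminescence.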
A number is an active result. A selection: hits, their analogues and other compounds. The true share with any hit is near 16%. Unless noted, calls follow the shape of the dose curve; as a rule, active = well fitted curve in the direction sought with a large enough effect; inconclusive = small, poorly fitted or top-dose-only effect, or another doubt; inactive = no such curve, though single readings can be large; an effect the other way counts as inactive or inconclusive.

CCc1ccc(-c2nn(CC(=O)NC3CCCCC3)c3c2cnc2ccc(OC)cc23)cc1 was read as TDP1 inh inactive, DT40 TDP1 no CPT 5.8µM, miR-21 reporter inactive and DT40 TDP1 CPT 5.8µM.
Screening CCc1ccc(-c2nn(CC(=O)NC3CCCCC3)c3c2cnc2ccc(C)cc23)cc1 returned TDP1 inh inactive, DT40 TDP1 no CPT inactive, miR-21 reporter inactive and DT40 TDP1 CPT inactive.
`CCc1ccc(-c2nn(-c3ccc(OC)cc3)c3c2cnc2ccc(OC)cc23)cc1` gave TDP1 inh inactive, DT40 TDP1 no CPT 6.5µM, miR-21 reporter inactive and DT40 TDP1 CPT inconclusive.
CCCNC(=O)Cn1nc(-c2ccc(C)c(C)c2)c2cnc3ccc(OC)cc3c21 was read as TDP1 inh inactive, DT40 TDP1 no CPT 8.2µM, miR-21 reporter inactive and DT40 TDP1 CPT 10µM.
Screening CC1CC1C(=O)OCC(=O)Nc1cccc(S(=O)(=O)NC2=NCCCCC2)c1 (stereo not drawn) returned uPA generation inactive, DT40 TDP1 no CPT inactive, miR-21 reporter inactive and DT40 TDP1 CPT inactive.
`CCC(=O)N1c2ccc(S(=O)(=O)N3CCN(C)CC3)cc2CC1C` (stereo not drawn) gave TDP1 inh inactive, uPA generation inactive, DT40 TDP1 no CPT inactive, miR-21 reporter inactive and DT40 TDP1 CPT inactive.
For COc1ccc2ncc3c(-c4ccc(C)c(C)c4)nn(CC(=O)NC4CCCCC4)c3c2c1 the results were TDP1 inh inactive, DT40 TDP1 no CPT 12µM, miR-21 reporter inactive and DT40 TDP1 CPT 8.2µM.
`CCc1ccc2ncc3c(-c4ccc(F)cc4)nn(CC(=O)NC4CCCCC4)c3c2c1` gave TDP1 inh inactive, DT40 TDP1 no CPT inactive, miR-21 reporter inactive and DT40 TDP1 CPT inactive.
For N#C/C(=C\c1cccnc1)c1nc2ccccc2[nH]1 the results were TDP1 inh inactive, uPA generation inactive, DT40 TDP1 no CPT 5.8µM, miR-21 reporter inactive and DT40 TDP1 CPT inconclusive.
Screening Cc1ccc2nc(/C(C#N)=C/c3ccc(O)c(O)c3)[nH]c2c1 returned TDP1 inh inactive, uPA generation inactive, DT40 TDP1 no CPT 18µM, miR-21 reporter inactive and DT40 TDP1 CPT 18µM.
Screening Cc1cc2nc(/C(C#N)=C/c3ccncc3)[nH]c2cc1C returned TDP1 inh inactive, uPA generation inactive, DT40 TDP1 no CPT 16µM, miR-21 reporter inactive and DT40 TDP1 CPT 18µM.
Screening Cc1ccc2nc(/C(C#N)=C/c3cccc(Br)c3)[nH]c2c1 returned DT40 TDP1 no CPT 16µM, miR-21 reporter inactive and DT40 TDP1 CPT 15µM.
Screening Cc1c(C(=O)NC2CCCc3ccccc32)oc2ccccc12 (stereo not drawn) returned TDP1 inh inactive, uPA generation inactive, DT40 TDP1 no CPT inconclusive, miR-21 reporter inactive and DT40 TDP1 CPT inconclusive.
`CCc1ccccc1NC(=O)CNC(=O)CSC(=S)N1CCCC1` gave TDP1 inh inactive, uPA generation inactive, DT40 TDP1 no CPT inactive and DT40 TDP1 CPT inactive.
Cc1ccc2nc(/C(C#N)=C/c3ccccc3C(=O)O)[nH]c2c1 was read as uPA generation inactive, DT40 TDP1 no CPT inactive, miR-21 reporter inactive and DT40 TDP1 CPT inactive.
For Cc1ccc2nc(/C(C#N)=C/c3cn[nH]c3-c3ccc(F)cc3)[nH]c2c1 the results were TDP1 inh inactive, uPA generation inactive, DT40 TDP1 no CPT 18µM, miR-21 reporter inactive and DT40 TDP1 CPT inconclusive.
Screening CC(NC(=O)Cc1ccccc1)C1COc2ccccc2O1 (stereo not drawn) returned TDP1 inh inactive, uPA generation inactive, DT40 TDP1 no CPT inactive, miR-21 reporter inactive and DT40 TDP1 CPT inactive.
CC(NCc1ccc([N+](=O)[O-])cc1)C1COc2ccccc2O1 (stereo not drawn) was read as uPA generation inactive, DT40 TDP1 no CPT 21µM, miR-21 reporter inactive and DT40 TDP1 CPT inactive.
Cc1cc(C)cc(Oc2ccc(C(F)(F)F)cc2C#N)c1 was read as TDP1 inh inactive, uPA generation inactive, DT40 TDP1 no CPT inactive, miR-21 reporter inactive and DT40 TDP1 CPT inactive.
For Cc1nc(C(F)(F)F)nc(Nc2ccc(Br)cc2)c1C#N the results were TDP1 inh inactive, uPA generation inactive, DT40 TDP1 no CPT inactive, miR-21 reporter inactive and DT40 TDP1 CPT inactive.

Screening data as filed in PubChem BioAssay.
